Biological target: T1, bovine β-lactoglobulin (Bos taurus, UniProt P02754)
T1 sequence (P02754 17-178): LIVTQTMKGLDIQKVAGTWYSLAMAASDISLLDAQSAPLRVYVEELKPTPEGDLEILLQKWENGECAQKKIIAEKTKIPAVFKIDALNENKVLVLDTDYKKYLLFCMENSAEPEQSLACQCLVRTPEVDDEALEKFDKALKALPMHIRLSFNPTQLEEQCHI
Method: β-Lactoglobulin from bovine milk, retinol, nitrophenyl phosphate and bromoethanol were purchased from Sigma Chemical Company (St. Louis, Mo., USA) and used without further purification. A stock solution of β-lactoglobulin in water was prepared at a concentration of 10.0 mg/ml. Nitrophenyl phosphate, retinol, and bromoethanol were dissolved in the protein stock solutions in the molecular ratios as indicated in Table 1. These protein/binding partner solutions were subjected to partitioning in a series of different aqueous two-phase systems, also as indicated below.
The aqueous two-phase system contained 13.75 wt. % PEG-600 (molecular weight of about 600) and 21.00 wt. % sodium/potassium phosphate buffer (pH 6.8). Each system was prepared by mixing the appropriate amounts of stock polymer and buffer solutions dispensed by liquid handling workstation Hamilton ML-2200 into a 1.2 mL microtube. A total volume of 800 μL was dispensed to the microtube. A varied amount (40, 80, 120, 160, and 200 μL) of the β-lactoglobulin solution or that of a mixture of a given ratio and the corresponding amount (160, 120, 80, 40, and 0.0 μl) of water were added to a system. The ratio between the volumes of the two phases of each system of a final volume of 1.00 mL was as 1:1. The system was shaken vigorously and then centrifuged for 30 min. at about 4000 rpm to speed resolution of the two phases. Tubes were then taken from the centrifuge, aliquots of a given volume (100 μl for direct spectrophotometric analysis and 150 μl for fluorescence analysis) from the top and the bottom phases were withdrawn in duplicate. Each aliquot was diluted, mixed with appropriate reagents, and used for analyzed as described below.
The other aqueous two-phase system contained 8.88 wt. % Dextran-64 (molecular weight of about 64,000), 12.86 wt. % Ficoll-400 (molecular weight of about 400,000) and 0.01 M sodium phosphate buffer (pH 8.6). Each system was prepared by mixing the appropriate amounts of stock polymer and buffer solutions dispensed by liquid handling workstation Hamilton ML-2200 into a microtube of a total volume of 1.2 mL up to a total volume of a system of 820 μL. A varied amount (40, 80, 120, and 160 μl) of the β-lactoglobulin solution or that of a mixture of a given ratio and the corresponding amount (140, 100, 60, and 20 μl) of water were added to each system. […] Tubes were taken out of the centrifuge, and aliquots of a given volume (100 μl for direct spectrophotometric analysis and 150 μl for fluorescence analysis) from the top and the bottom phases were withdrawn in duplicate and each diluted and mixed with appropriate reagents as indicated below and used for further analysis performed as described below. […]

For “bovine β-lactoglobulin: β-Lactoglobulin from bovine milk (Sigma); protein alone, row 'None' of Table 1”, the “Partition coefficient K-value, PEG/Phosphate system” value (pH 6.8) was 1.796 ± 0.005, the “Partition coefficient K-value, Dex-PEG system” value (pH 7.4) was 0.180 ± 0.008 and the “Partition coefficient K-value, Dex-Ficoll system” value (pH 8.6) was 0.836 ± 0.003. The “Partition coefficient K-value, Dex-Ficoll-NaSCN system” value (pH 8.6) was 0.451 ± 0.002.

— patent publication US8211714B2, “Characterization of molecules” (Analiza, Inc., priority 2001, dated 2012)
